In ChEMBL document CHEMBL5512690, “Identification and Validation of PKR as a Direct Target for the Novel Sulfonamide-Substituted Tetrahydroquinoline Nonselective Inhibitor of the NLRP3 Inflammasome” (J Med Chem, 2024):
Active and inactive are the calls of the source. No cut-off for these calls is given here.

Protein sequences, listed by entry. Tags and fused reporters are not part of them. Lines headed by an entry give the natural chain unless they say otherwise; changes in a name come on top.
UniProt P19525: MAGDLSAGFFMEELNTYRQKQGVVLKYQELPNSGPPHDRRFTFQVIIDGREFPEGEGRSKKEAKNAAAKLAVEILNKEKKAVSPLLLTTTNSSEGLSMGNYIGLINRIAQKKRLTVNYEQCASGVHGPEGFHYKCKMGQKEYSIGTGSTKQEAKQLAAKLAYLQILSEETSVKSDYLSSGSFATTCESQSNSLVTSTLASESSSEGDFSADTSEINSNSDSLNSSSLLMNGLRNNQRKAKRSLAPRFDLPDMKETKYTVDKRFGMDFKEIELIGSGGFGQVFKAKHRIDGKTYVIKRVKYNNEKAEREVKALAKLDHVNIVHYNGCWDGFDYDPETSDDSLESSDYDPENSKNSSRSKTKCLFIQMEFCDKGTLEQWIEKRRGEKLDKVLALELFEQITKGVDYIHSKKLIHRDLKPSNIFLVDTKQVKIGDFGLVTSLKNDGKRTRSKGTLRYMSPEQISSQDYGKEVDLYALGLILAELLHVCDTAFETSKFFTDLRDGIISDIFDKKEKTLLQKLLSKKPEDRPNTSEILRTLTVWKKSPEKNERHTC
UniProt Q8R4B8, whole entry: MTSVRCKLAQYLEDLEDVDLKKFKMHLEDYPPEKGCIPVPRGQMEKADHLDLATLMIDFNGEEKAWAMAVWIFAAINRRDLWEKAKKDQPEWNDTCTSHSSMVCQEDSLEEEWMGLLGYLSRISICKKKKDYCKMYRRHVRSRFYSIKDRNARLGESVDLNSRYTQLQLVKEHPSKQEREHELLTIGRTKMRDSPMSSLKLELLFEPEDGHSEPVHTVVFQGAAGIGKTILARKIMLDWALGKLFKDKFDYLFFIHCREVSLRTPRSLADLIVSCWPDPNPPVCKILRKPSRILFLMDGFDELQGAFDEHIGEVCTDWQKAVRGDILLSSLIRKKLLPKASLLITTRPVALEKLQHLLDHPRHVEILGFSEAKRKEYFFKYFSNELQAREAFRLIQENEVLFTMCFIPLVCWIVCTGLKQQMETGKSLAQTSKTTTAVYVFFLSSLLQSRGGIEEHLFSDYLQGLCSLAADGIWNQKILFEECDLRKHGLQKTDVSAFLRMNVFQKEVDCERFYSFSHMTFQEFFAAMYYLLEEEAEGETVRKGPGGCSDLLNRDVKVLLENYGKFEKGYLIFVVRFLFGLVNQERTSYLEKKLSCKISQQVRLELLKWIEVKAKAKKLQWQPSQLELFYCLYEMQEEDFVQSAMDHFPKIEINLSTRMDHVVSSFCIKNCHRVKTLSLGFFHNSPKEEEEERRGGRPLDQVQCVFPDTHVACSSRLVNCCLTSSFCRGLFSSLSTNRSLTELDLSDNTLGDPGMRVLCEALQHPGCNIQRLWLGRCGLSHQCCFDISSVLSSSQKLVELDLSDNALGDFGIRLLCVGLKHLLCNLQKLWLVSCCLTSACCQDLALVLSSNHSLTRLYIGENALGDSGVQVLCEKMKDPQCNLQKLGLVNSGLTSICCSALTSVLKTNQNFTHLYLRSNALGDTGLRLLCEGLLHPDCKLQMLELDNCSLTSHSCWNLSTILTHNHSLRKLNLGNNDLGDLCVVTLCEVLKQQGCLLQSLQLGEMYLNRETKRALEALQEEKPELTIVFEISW
UniProt Q9NPP4, whole entry: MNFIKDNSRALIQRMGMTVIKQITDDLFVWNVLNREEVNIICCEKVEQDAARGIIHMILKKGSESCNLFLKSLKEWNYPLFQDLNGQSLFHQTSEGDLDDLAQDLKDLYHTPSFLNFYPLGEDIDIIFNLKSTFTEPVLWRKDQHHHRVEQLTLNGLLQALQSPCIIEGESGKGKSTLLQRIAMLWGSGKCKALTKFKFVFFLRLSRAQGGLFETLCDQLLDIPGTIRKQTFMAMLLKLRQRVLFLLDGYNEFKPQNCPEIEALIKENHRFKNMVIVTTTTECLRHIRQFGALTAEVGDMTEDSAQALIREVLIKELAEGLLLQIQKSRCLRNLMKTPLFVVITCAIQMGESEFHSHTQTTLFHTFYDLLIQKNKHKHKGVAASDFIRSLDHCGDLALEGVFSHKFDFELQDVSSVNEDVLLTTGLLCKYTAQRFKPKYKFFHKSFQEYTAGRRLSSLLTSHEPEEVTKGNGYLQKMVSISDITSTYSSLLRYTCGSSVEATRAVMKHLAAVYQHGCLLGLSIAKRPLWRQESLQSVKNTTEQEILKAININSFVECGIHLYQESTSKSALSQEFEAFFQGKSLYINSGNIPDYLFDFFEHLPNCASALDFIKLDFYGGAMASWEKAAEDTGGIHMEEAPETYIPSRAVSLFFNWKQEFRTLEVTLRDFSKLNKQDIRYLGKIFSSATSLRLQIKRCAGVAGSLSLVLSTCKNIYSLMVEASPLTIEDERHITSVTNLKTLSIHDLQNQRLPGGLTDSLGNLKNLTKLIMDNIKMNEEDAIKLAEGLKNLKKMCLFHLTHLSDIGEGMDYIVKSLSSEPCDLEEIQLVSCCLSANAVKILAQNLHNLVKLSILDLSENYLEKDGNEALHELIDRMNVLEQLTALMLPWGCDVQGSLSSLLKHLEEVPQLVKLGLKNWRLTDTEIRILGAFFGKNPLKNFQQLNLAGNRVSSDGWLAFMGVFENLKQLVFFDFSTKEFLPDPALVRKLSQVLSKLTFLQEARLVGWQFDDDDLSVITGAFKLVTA

Columns and labels:
[1] = system: THP-M; test: Cytotoxicity against human differentiated THP-M cells derived PMA induced THP-1 cells at upto 100 uM measured after 72 hrs by MTT assay; assay type: functional, cell-based
[2] = biological target: Interferon-induced, double-stranded RNA-activated protein kinase (Homo sapiens) (UniProt P19525); test: Binding affinity to PKR in human differentiated THP-M cells derived PMA induced THP-1 cells assessed as protein labelling measured after 12 hrs by Dapi-staining based analysis; assay type: cell-based; conditions: dose 2-20 µM
[3] = biological target: Interferon-induced, double-stranded RNA-activated protein kinase (Homo sapiens) (UniProt P19525); test: Binding affinity to human PKR by immunoblot analysis; conditions: dose 10-20 µM
[4] = biological target: Interferon-induced, double-stranded RNA-activated protein kinase (Homo sapiens) (UniProt P19525); test: Binding affinity to PKR in human differentiated THP-M cells derived PMA induced THP-1 cells assessed as protein labelling at 10 to 20 uM measured after 12 hrs by immunofluorescence analysis; assay type: cell-based; conditions: dose 10-20 µM
[5] = biological target: NACHT, LRR and PYD domains-containing protein 3 (Mus musculus) (UniProt Q8R4B8); test: Inhibition of NLRP3 inflammasome activation in LPS primed mouse BMDM cells assessed as reduction in IL-1 beta level at 5 to 15 uM preincubated with compound for 24 hrs followed by LPS stimulation for 3 hrs and further incubated with ATP for 1 hr by ELISA method; assay type: cell-based; conditions: dose 5-15 µM, time 28.0 hrs
[6] = biological target: T1, Interferon-inducible protein AIM2 (Homo sapiens) (UniProt O14862); test: (§1) Inhibition of AIM2 inflammasome activation in LPS primed human differentiated THP-M cells derived PMA induced THP-1 cells assessed as inhibition of IL-1 beta level at 5 to 15 uM preincubated with compound for 24 hrs followed by LPS stimulation further stimulated for 4 hrs with Poly (dA:dT) by ELISA method; assay type: cell-based; conditions: dose 5-15 µM, time 28.0 hrs
T1 sequence (whole entry): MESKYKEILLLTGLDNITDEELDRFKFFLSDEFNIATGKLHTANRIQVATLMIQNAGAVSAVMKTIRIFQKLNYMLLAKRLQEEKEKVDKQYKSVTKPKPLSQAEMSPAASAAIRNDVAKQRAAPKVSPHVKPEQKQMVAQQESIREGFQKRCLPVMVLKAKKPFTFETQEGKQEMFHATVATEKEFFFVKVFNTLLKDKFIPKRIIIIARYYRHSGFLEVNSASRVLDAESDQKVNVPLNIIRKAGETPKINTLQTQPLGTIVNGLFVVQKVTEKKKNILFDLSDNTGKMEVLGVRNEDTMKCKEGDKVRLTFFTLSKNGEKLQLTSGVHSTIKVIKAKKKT

[7] = biological target: NLR family CARD domain-containing protein 4 (Homo sapiens) (UniProt Q9NPP4); test: as §1, with “NLRC4” for “AIM2”; assay type: cell-based; conditions: dose 5-15 µM, time 28.0 hrs

| Activity [2] | Activity [3] | Activity [4] | inhibition [5] | inhibition [6] | inhibition [7] | SMILES | Activity [1] |
| --- | --- | --- | --- | --- | --- | --- | --- |
| Active | Dose-Dependent Effect | Active | – | – | – | C#CCCC1(CCN2CCCc3ccc(NS(=O)(=O)c4ccc(-c5ccccc5)cc4)cc32)N=N1 | inactive |
| – | – | – | Active | Active | Active | CS(=O)(=O)N1CCCc2ccc(NS(=O)(=O)c3ccc(-c4ccccc4)cc3)cc21 | – |
